Bioassay records deposited in PubChem BioAssay by Broad Institute.
MITF act = activators of MITF-driven TRPM1 promoter reporter, primary screen, cell-based, SK-MEL-5, luciferase, single point; SK-MEL-5 TRPM1-promoter luciferase, 24 h; % of positive control, neutral wells = 0; activation, % at 12.5 µM; 300,000 tested, 0.75% active;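 active = mean activation of at least 80% with every replicate also reaching 80%; inconclusive = mean reaches 80% but some replicate falls short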;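 note: 0% = neutral control wells and 100% = parthenolide positive control wells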
esBAF inh = Bmi1 luciferase reporter increase in mESCs, primary screen, esBAF inhibitor project, mouse ES cells, Bmi1 luciferase knock-in, single point; 24 h; 100% = twice the neutral-well signal; reporter increase, % at 12.5 µM; 350,000 tested, 2% active; in the data active = activation above about 40%; inconclusive = no clear call, values can overlap the other calls;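 note: 0% = median of the plate's neutral control wells and 100% = double that signal; a rise in the Bmi1 reporter signal indicates esBAF inhibition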
Yeast UUG start = modulators of yeast start codon fidelity, primary screen, whole organism, S. cerevisiae, single point, plate reader; S. cerevisiae UUG-firefly luciferase reporter, luminescence/redox ratio; activity score, % at 18.7 µM; actives 0.13% (n = 350,000); AID 602363, 2012;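 active = replicate mean at a twofold rise or more, about +100% in these data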;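 also: firefly luciferase made from a UUG start codon reports start codon fidelity; reporter light over untreated wells divided by growth signal over untreated wells; some hits fall short of that in this replicate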
Wnt bcat act = Wnt/beta-catenin pathway activators, primary screen, cell-based, plate reader, single point. Wnt/beta-catenin reporter cell assay, activator. activation, % at 9.35 µM. 300,000 tested, 1.2% active. AID 743398, 2014; in the data active = activation above about 30%, passing the limit was not always enough; inconclusive = no clear call, values can overlap the other calls;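 note: 0% = neutral control wells and 100% = positive control wells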
PglD inh = C. jejuni PglD acetyltransferase inhibitors, primary screen, biochemical, DTNB colorimetric, single point; 360,000 tested, 0.098% active; inhibition, % at 12.5 µM; UDP-N-acetylbacillosamine N-acetyltransferase PglD (Campylobacter jejuni); AID 602405, 2012; purified PglD enzyme, DTNB colorimetric CoA detection; in the data active = inhibition above about 16%, passing the limit was not always enough; inconclusive = no clear call, values can overlap the other calls
miR122 inh = miR-122 Renilla sensor signal increase in Huh7, primary screen, miR-122 inhibitor project, cell-based, single point, plate reader; AID 602342, 2012; Huh7 miR-122 Renilla luciferase sensor, 48 h; neutral wells = 0, positive control = 100; 340,000 tested, 0.3% active; activation (reporter increase), % at 12.5 µM;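 active = mean replicate activation score at least 90 and every replicate individually at or above 90; inconclusive = only one of the two criteria met; inactive = neither criterion met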;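 note: higher luciferase means less miR-122 activity so hits act as miR-122 inhibitors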
* marks the source's active call; other numbers are inactive results; [ ] = remark or other dose. Sampled rows, rich in hits. Any-hit rate of the full collection: about 2.8%.

How did C[C@H](CO)N1C[C@H](C)[C@H](CN(C)S(C)(=O)=O)Oc2c(NS(=O)(=O)c3ccccc3)cccc2C1=O do in these assays?
esBAF inh: -0.2; Yeast UUG start: 6.6; PglD inh: -1.1; miR122 inh: -5.1[16.7 µM]

Results for Cc1ccc(-c2ccc(C(=O)O)c(C)n2)cc1 ?
MITF act: -7.9; esBAF inh: -5.3; Yeast UUG start: -16.3; Wnt bcat act: -3.0; PglD inh: -6.0; miR122 inh: 10.9

How did COC(=O)c1ccc(-c2ccc(F)cc2)nc1C do in these assays?
MITF act: 105.4*; esBAF inh: 37.8; Yeast UUG start: -32.4; Wnt bcat act: 28.0; PglD inh: 2.1; miR122 inh: -2.2

How did CCOC(=O)c1ccc(-c2ccc3c(c2)CCC3)nc1C do in these assays?
MITF act: 75.8; esBAF inh: 38.2; Yeast UUG start: -11.7; Wnt bcat act: 38.0*; PglD inh: 4.7; miR122 inh: -4.6

How did CO[C@H]1CN(C)C(=O)c2ccc(NS(=O)(=O)c3ccc(Cl)cc3)cc2OC[C@H](C)N(C(=O)NC(C)C)C[C@H]1C do in these assays?
esBAF inh: -1.6; Yeast UUG start: 36.7; PglD inh: 1.0; miR122 inh: 4.4[16.7 µM]

How did CCOC(=O)C(C(=O)OCC)C1N=C(N)N=C2Oc3ccccc3N21 (stereo not drawn) do in these assays?
MITF act: 33.0; esBAF inh: 89.4*; Yeast UUG start: -24.3; PglD inh: -2.2; miR122 inh: -0.6

Results for COc1ccc2oc(C(=O)Nc3nc(C)cs3)c(C)c2c1 ?
MITF act: 79.5; esBAF inh: 22.1; Yeast UUG start: -23.6; Wnt bcat act: 51.2*; PglD inh: -3.7; miR122 inh: 0.0

What do the screens show for `Cc1csc(NC(=O)c2sccc2C)n1`?
MITF act: 30.3; esBAF inh: 2.4; Yeast UUG start: -15.0; Wnt bcat act: 47.7*; PglD inh: -8.8; miR122 inh: -3.7

How did COc1ccc2oc(C(=O)Nc3ccccn3)c(C)c2c1 do in these assays?
MITF act: -8.0; esBAF inh: -48.6; Yeast UUG start: -48.8; Wnt bcat act: 42.6*; PglD inh: 4.4; miR122 inh: -3.1

How did COc1ccc2oc(C(=O)Nc3ccc(C)cn3)c(C)c2c1 do in these assays?
MITF act: 75.9; esBAF inh: inconclusive; Yeast UUG start: -2.9; Wnt bcat act: 38.2*; PglD inh: -6.4

How did COc1ccc2oc(C(=O)NCCC(C)C)c(C)c2c1 do in these assays?
MITF act: inconclusive; esBAF inh: 26.5; Yeast UUG start: -21.7; Wnt bcat act: -2.3; PglD inh: -0.5; miR122 inh: -4.0

What do the screens show for `Cc1ccsc1C(=O)Nc1nccs1`?
MITF act: 10.8; esBAF inh: 13.0; Yeast UUG start: -27.4; Wnt bcat act: 6.4; PglD inh: 4.4; miR122 inh: 1.1

How did CCN1[C@@H]2c3ccc(-c4cccc(F)c4)c(=O)n3C[C@H]1[C@H](CO)[C@H]2C(=O)NCCCN(C)C do in these assays?
esBAF inh: -4.7; PglD inh: -0.7

Results for C[C@H]1CN([C@@H](C)CO)C(=O)c2cc(NC(=O)CCC(F)(F)F)ccc2O[C@H]1CN(C)S(=O)(=O)c1cn(C)cn1 ?
esBAF inh: -4.1; Yeast UUG start: 4.2; PglD inh: 0.2; miR122 inh: -1.0[16.7 µM]

What do the screens show for `O=C(C[C@@H]1C[C@@H]2c3cc(NC(=O)Nc4ccccc4)ccc3O[C@@H]2[C@@H](CO)O1)NCc1ccccc1`?
esBAF inh: 1.7; PglD inh: 2.3; miR122 inh: -6.7[16.7 µM]

Results for O=C(Nc1ccccc1)SC1CCCCC1 ?
MITF act: 79.1; esBAF inh: 82.9*; Yeast UUG start: -7.2; Wnt bcat act: 9.4; PglD inh: 1.2; miR122 inh: -5.6

Results for O=C(Nc1ccccc1)N1CCCC2CCCCC21 (stereo not drawn) ?
MITF act: 60.6; esBAF inh: 52.2*; Yeast UUG start: -14.4; Wnt bcat act: -1.6; PglD inh: 5.5; miR122 inh: -0.9

Results for CCOc1ccccc1N(CC(=O)Nc1cccnc1)S(=O)(=O)c1ccc(C)cc1 ?
MITF act: 2.3; Wnt bcat act: 0.0; miR122 inh: 128.4*

What do the screens show for `COCc1nc2oc3ccccc3c(=O)c2cc1C(=O)OC`?
MITF act: 88.1*; esBAF inh: 48.2*; Yeast UUG start: -5.7; Wnt bcat act: 17.4; PglD inh: -1.3; miR122 inh: -2.4

How did COc1ccc(-c2cn(CC[C@H]3CC[C@@H](NC(=O)CCN4CCCCC4)[C@@H](CO)O3)nn2)cc1 do in these assays?
esBAF inh: 6.9; PglD inh: 10.8

The closing 3 records of the part before open the next one.
Results for CCOc1ccccc1N(CC(=O)Nc1cccnc1)S(=O)(=O)c1ccc(C)cc1 ?
MITF act: 2.3; Wnt bcat act: 0.0; miR122 inh: 128.4*

What do the screens show for `COCc1nc2oc3ccccc3c(=O)c2cc1C(=O)OC`?
MITF act: 88.1*; esBAF inh: 48.2*; Yeast UUG start: -5.7; Wnt bcat act: 17.4; PglD inh: -1.3; miR122 inh: -2.4

How did COc1ccc(-c2cn(CC[C@H]3CC[C@@H](NC(=O)CCN4CCCCC4)[C@@H](CO)O3)nn2)cc1 do in these assays?
esBAF inh: 6.9; PglD inh: 10.8

How did C[C@@H]1CCCCO[C@H](CN(C)C(=O)NC2CCCCC2)[C@H](C)CN([C@@H](C)CO)C(=O)c2cc(NC(=O)Cc3ccccc3)ccc2O1 do in these assays?
esBAF inh: 31.3; Yeast UUG start: -4.4; PglD inh: -0.4; miR122 inh: -6.9[16.7 µM]

Results for COCC(=O)Nc1nc2ccccc2s1 ?
MITF act: 17.6; esBAF inh: 18.7; Yeast UUG start: -0.1; Wnt bcat act: 19.0; PglD inh: -5.8; miR122 inh: -1.2

What do the screens show for `O=C(Cc1ccccc1)Nc1nc(=O)c2ccccc2s1`?
MITF act: 14.4; Yeast UUG start: -7.9; PglD inh: -1.0; miR122 inh: -3.6

What do the screens show for `O=C(Cc1ccccc1)Nc1nc2ccccc2s1`?
MITF act: inconclusive; esBAF inh: 49.9*; Yeast UUG start: 0.2; Wnt bcat act: 8.0; PglD inh: -1.6; miR122 inh: 3.8

How did CC(C)C(=O)NNc1nc2ccccc2s1 do in these assays?
MITF act: 78.4; esBAF inh: 92.1*; Yeast UUG start: -14.5; Wnt bcat act: 15.9; PglD inh: -3.1; miR122 inh: -6.7

What do the screens show for `O=C(Cc1nc(=O)c2ccccc2s1)Nc1ccccc1`?
esBAF inh: 62.1*; Yeast UUG start: -21.0; PglD inh: -0.3; miR122 inh: 9.8

Results for CC1(C(=O)Nc2nc3ccccc3s2)CC1(Br)Br (stereo not drawn) ?
MITF act: 82.9*; esBAF inh: inconclusive; Yeast UUG start: -16.9; Wnt bcat act: 13.7; PglD inh: -2.8; miR122 inh: -3.5

Results for COc1ccc(CN(C)C[C@@H]2Oc3c(NC(=O)NC4CCCCC4)cccc3C(=O)N([C@H](C)CO)C[C@H]2C)cc1 ?
esBAF inh: -3.7; Yeast UUG start: -1.8; PglD inh: -4.4; miR122 inh: 68.6[16.7 µM]
